From patent US4514403A, “Hydrouracil compounds” (Yoshitomi Pharmaceutical Industries Ltd., priority 1980, dated 1985)
Counter-ions that a name gives are not always drawn. Like-named read-outs stand apart in the source and are kept apart here.

Assays:
central nervous system = assay: Activity on central nervous system; details: in vivo
[1] = system: ventro-medial hypothalamus; assay: Effect on the aggressive-defense reaction produced by electrical stimulation at the ventro-medial hypothalamus of cats; type: in vivo; details: for Threshold of current, Ear-flattening / Threshold of current, Growling / Threshold of current, Retreat with provocation / Threshold of current, Pupil dilatation: standard current = 100
Method: The latter used the double-walled cannula method which permitted electrical and chemical stimulation at the same locus in brain. H. Nakao et al. in "Integrative Control Functions of the Brain", vol. […] Similar studies have been done using serotonin by L. H. Allikmets in "Pavlov Journal of High Nervous Activity", 22, 597-602 (1972) and using chlorpromazine, haloperidol, pentobarbital and diazepam by H. Maeda in "Folia Psychiatrica et Neurologica Japonica", 30, 539-546 (1976).
Alternatively 30 mg/kg of Test compound B was injected subcutaneously.

in vivo = details: rat
Hot plate test = details: for ED50: Rattus norvegicus, sc, read-out: Hot Plate Test ED50
Mouse jumping test = details: administration at a lethal dose
AgNO3 arthritis test = details: for ED50: Rattus norvegicus, sc, read-out: AgNO3 Arthritis Test ED50; for Inhibition (%) of Occurrence of Pain: 5 mg/kg s.c.
Electric stimuli test = details: for ED50: Mus musculus, read-out: Electric Stimuli Test ED50; for Electric Stimuli Test ED50: mice
[2] = Phenylquinone writhing test; details: for ED50: Mus musculus, read-out: Phenylquinone Writhing Test ED50; for Phenylquinone Writhing Test ED50 / Inhibition (%) of Occurrence of Pain: mice; for Inhibition (%) of Occurrence of Pain: 0.5 mg/kg s.c.
[3] = Bradykinin nociception test; details: for ED50: Rattus norvegicus, read-out: Bradykinin Nociception Test ED50; for Bradykinin Nociception Test ED50 / Inhibition (%) of Occurrence of Pain: rats; for Inhibition (%) of Occurrence of Pain: 2.5 mg/kg s.c.
[4] = Tooth pulp nociception test
[5] = Antagonism by levallorphan in electric stimuli test; details: electric stimuli test in mice; levallorphan (narcotic antagonist)
[6] = system: evoked potentials in central nervous system; assay: Effect on the various evoked potentials in central nervous system; type: in vivo, Male Wistar rats; design: key to Amplitude of Evoked Responses, VP-COR / Amplitude of Evoked Responses, HIP-AMY / Amplitude of Evoked Responses, HIP-SEP: -: No change; --: No change; (+): Levallorphan antagonism; (-): Levallorphan antagonism
Method: Male Wistar rats, weighing 300-350 g, were used under ethyl ether anesthesia. The trachea and femoral vein were cannulated for artificial respiration and drug injection, respectively. Immobilization of the rat was maintained by gallamine thioethiodide (10 mg/kg) given intravenously every one hours. All wound edges were infiltration with carbocaine hydrochloride. The experiments began after at least 2 hours had elapsed from discontinuance of ether anesthesia. The COR (somatosensory cortex) evoked potentials by VP (neucleus ventralis posterior thalamus) stimulation (VP - COR evoked potential) were recorded from somatosensory cortex, through a silver electrode applied directly to the cortex. In order to record VP and MRF (midbrain reticular formation) evoked potentials by sciatic nerve stimulation or AMY (amygdala) and SEP (septum) evoked potentials by HIP (hippocampus) stimulation, bipolar stainless steel electrodes were stereotaxically placed into the VP, MRF, AMY, SEP and HIP. The stimuli were delivered to various sites every 2 seconds from a stimulation and consisted of 0.1 msec rectangular pulses (twice threshold intensity). The evoked responses were visualized on an oscilloscope. All records were made up of 20 superimposed tracings.

[7] = system: ventro-medial hypothalamus; details: compared with Test compound B; cited from earlier work
Tolerance test = type: in vivo; details: continuous administration
[8] = rat, in vivo
[9] = calculated from inhibition (%) in a low dose

## O=C1CCN(C2CCN(CC=Cc3ccccc3)CC2)C(=O)N1 [Test compound B, 1-(1-cinnamyl-4-piperidyl)hydrouracil hydrochloride]
Central nervous system
  muscle relaxant activity: did not show practically such activities
  reserpine potentiating activity: did not show practically such activities
  suppression of spontaneous locomotor activity: did not show practically such activities
[1]; 30 mg/kg s.c., 0 min
  Threshold of current, Ear-flattening: 100
  Threshold of current, Growling: 100
  Threshold of current, Retreat with provocation: 100
[1]; 30 mg/kg s.c., 70 min
  Threshold of current, Ear-flattening: 120
  Threshold of current, Growling: 177
  Threshold of current, Retreat with provocation: 142
[1]; 30 mg/kg s.c., 110 min
  Threshold of current, Ear-flattening: 105
  Threshold of current, Growling: 184
  Threshold of current, Retreat with provocation: 127
[1]; 30 mg/kg subcutaneously
  duration for which the threshold of responses was raised: over 2 hours
  rage behaviour with provocation by the experimenter: did not show rage behaviour
[1]; 10^-6 g in 0.5 μl through double-walled cannula
  duration for which the threshold of current was raised: 60 min
[1]; 10^-6 g in brain, 0 min
  Threshold of current, Ear-flattening: 100
  Threshold of current, Growling: 100
  Threshold of current, Pupil dilatation: 100
  Threshold of current, Retreat with provocation: 100
[1]; 10^-6 g in brain, 5 min
  Threshold of current, Ear-flattening: 200
  Threshold of current, Growling: 200
  Threshold of current, Pupil dilatation: 200
  Threshold of current, Retreat with provocation: 180
[1]; 10^-6 g in brain, 20 min
  Threshold of current, Ear-flattening: 200
[1]; during this experiment
  breathing of the cat: normal
[1]; electrical stimulation of ventro-medial hypothalamus
  threatening, rage and retreat reactions: clearly suppressed
In vivo; ip
  LD50: 150 mg/kg
In vivo; po
  LD50: 1200 mg/kg
In vivo; sc
  LD50: 500 mg/kg
Hot plate test
  ED50: 90 mg/kg
Mouse jumping test
  jumping symptom: did not cause any jumping symptom
AgNO3 arthritis test
  ED50: 25 mg/kg
Electric stimuli test; po
  ED50: 200 mg/kg
Electric stimuli test; sc
  ED50: 40 mg/kg
[2]; po
  ED50: 18 mg/kg
[2]; sc
  ED50: 7.8 mg/kg
[3]; po
  ED50: 100 mg/kg
[3]; sc
  ED50: 10 mg/kg

## COc1cccc(C2(O)CCCCC2CN(C)C)c1 (stereo not drawn) [Tramadol, reference compound]
In vivo; ip
  LD50: 150 mg/kg
In vivo; po
  LD50: 228 mg/kg
In vivo; sc
  LD50: 300 mg/kg
Hot plate test; rats, s.c.
  Hot Plate Test ED50: 50 mg/kg
AgNO3 arthritis test; rats, s.c.
  AgNO3 Arthritis Test ED50: 17 mg/kg
Electric stimuli test; p.o.
  Electric Stimuli Test ED50: 23 mg/kg
Electric stimuli test; s.c.
  Electric Stimuli Test ED50: 12 mg/kg
[2]; p.o.
  Phenylquinone Writhing Test ED50: 11 mg/kg
[2]; s.c.
  Phenylquinone Writhing Test ED50: 1.5 mg/kg
[4]; rabbit, in vivo, iv
  Tooth Pulp Nociception Test IT100: 5 mg/kg
[3]; p.o.
  Bradykinin Nociception Test ED50: 50 mg/kg
[3]; s.c.
  Bradykinin Nociception Test ED50: 70 mg/kg
[5]
  Influence of levallorphan on analgesic activity: reduced

## CCOC(=O)C1(c2ccccc2)CCN(C)CC1 [Pethidine, reference compound]
[6]; 5 mg/kg i.v.
  Amplitude of Evoked Responses, HIP-SEP: --
  Amplitude of Evoked Responses, VP-COR: --
[6]; 10 mg/kg i.v.
  Amplitude of Evoked Responses, HIP-SEP: --

## CN(C)CCCN1c2ccccc2Sc2ccc(Cl)cc21 [chlorpromazine]
[7]
  inhibition of threatening and rage reactions: less active

## O=C1CCN(C2CCN(CCc3ccccc3)CC2)C(=O)N1 [Test compound D, 1-(1-phenethyl-4-piperidyl)hydrouracil hydrochloride]
In vivo; ip
  LD50: 180 mg/kg
In vivo; po
  LD50: 500 mg/kg
In vivo; sc
  LD50: 450 mg/kg
Hot plate test
  ED50: 200 mg/kg
AgNO3 arthritis test
  ED50: 90 mg/kg
Electric stimuli test; po
  ED50: 220 mg/kg
Electric stimuli test; sc
  ED50: 100 mg/kg
[2]; po
  ED50: 4 mg/kg
[2]; sc
  ED50: 2.5 mg/kg
[3]; sc
  ED50: 25 mg/kg

## COc1ccc2c3c1O[C@H]1[C@@H](O)C=C[C@H]4[C@@H](C2)N(C)CC[C@@]341 [Codeine, reference compound]
Tolerance test
  tolerance (decrease of effects): caused a clear tolerance
rats, withdrawal
  body weight reduction: remarkably reduced

## Cc1c(N(C)C)c(=O)n(-c2ccccc2)n1C [Aminopyrine, reference compound]
[6]; 10 mg/kg i.v.
  Amplitude of Evoked Responses, HIP-AMY: --
  Amplitude of Evoked Responses, HIP-SEP: --
  Amplitude of Evoked Responses, VP-COR: --
[6]; 25 mg/kg i.v.
  Amplitude of Evoked Responses, HIP-AMY: --
  Amplitude of Evoked Responses, HIP-SEP: --
[6]; 50 mg/kg i.v.
  Amplitude of Evoked Responses, HIP-AMY: --
  Amplitude of Evoked Responses, HIP-SEP: --
In vivo; ip
  LD50: 248 mg/kg
In vivo; po
  LD50: 1050 mg/kg
AgNO3 arthritis test
  ED50: 170 mg/kg
Electric stimuli test; po
  ED50: 315 mg/kg
Electric stimuli test; sc
  ED50: 100 mg/kg
[2]; po
  ED50: 92 mg/kg
[2]; sc
  ED50: 16 mg/kg
[3]; sc
  ED50: 30 mg/kg

## CCCC(C)C1(CC)C(=O)NC(=O)NC1=O (stereo not drawn) [pentobarbital]
[7]
  inhibition of threatening and rage reactions: less active

## CC(C)=CCN1CCC2(C)c3cc(O)ccc3CC1C2C (stereo not drawn) [Pentazocine]
In vivo; po
  LD50: 1100 mg/kg
In vivo; sc
  LD50: 270 mg/kg
Hot plate test
  ED50: 30 mg/kg
AgNO3 arthritis test
  ED50: 10 mg/kg
AgNO3 arthritis test; calculated from ED50
  Relative potency (Test compound A = 1), AgNO3 Arthritis Test: 0.7
AgNO3 arthritis test; [9]
  Relative potency (Test compound A = 1), AgNO3 Arthritis Test: 0.78
AgNO3 arthritis test; rats
  Inhibition (%) of Occurrence of Pain: 33%
Electric stimuli test; po
  ED50: 178 mg/kg
Electric stimuli test; sc
  ED50: 23 mg/kg
[2]; po
  ED50: 18 mg/kg
[2]; sc
  ED50: 1.3 mg/kg
[2]; calculated from ED50
  Relative potency (Test compound A = 1), Phenylquinone Writhing Test: 0.77
[2]; [9]
  Relative potency (Test compound A = 1), Phenylquinone Writhing Test: 0.31
[2]
  Inhibition (%) of Occurrence of Pain: 15%
[4]; calculated from ED50
  Relative potency (Test compound A = 1), Tooth Pulp Nociception Test: 0.82
[4]; [9]
  Relative potency (Test compound A = 1), Tooth Pulp Nociception Test: 0.59
[4]; rabbits, 2.5 mg/kg i.v.
  increasing rate in threshold: 44%
[3]; po
  ED50: 100 mg/kg
[3]; sc
  ED50: 8 mg/kg
[3]; calculated from ED50
  Relative potency (Test compound A = 1), Bradykinin Nociception Test: 0.5
[3]; [9]
  Relative potency (Test compound A = 1), Bradykinin Nociception Test: 0.34
[3]
  Inhibition (%) of Occurrence of Pain: 13%

## CN1C(=O)CN=C(c2ccccc2)c2cc(Cl)ccc21 [diazepam]
[7]
  inhibition of threatening and rage reactions: less active

## CN1CC[C@]23c4c5ccc(O)c4O[C@H]2[C@@H](O)C=C[C@H]3[C@H]1C5 [Morphine]
Hot plate test
  ED50: 4 mg/kg
AgNO3 arthritis test
  ED50: 0.8 mg/kg
AgNO3 arthritis test; rats
  Inhibition (%) of Occurrence of Pain: 100%
Electric stimuli test; sc
  ED50: 3 mg/kg
Electric stimuli test; p.o.
  Electric Stimuli Test ED50: 17 mg/kg
[2]; po
  ED50: 2.1 mg/kg
[2]; sc
  ED50: 0.4 mg/kg
[2]
  Inhibition (%) of Occurrence of Pain: 78%
[3]; po
  ED50: 50 mg/kg
[3]; sc
  ED50: 6 mg/kg
[3]
  Inhibition (%) of Occurrence of Pain: 17%

## CN1C(=O)CCN(C2CCN(CCc3ccccc3)CC2)C1=O [Test compound C, 1-(1-phenethyl-4-piperidyl)-3-methyl-hydrouracil hydrochloride]
Tolerance test
  cross tolerance against codeine: did not show a cross tolerance against codeine
  tolerance (decrease of effects): did not cause a significant decrease of effects
[6]; 5 mg/kg i.v.
  Amplitude of Evoked Responses, HIP-AMY: --
  Amplitude of Evoked Responses, HIP-SEP: --
  Amplitude of Evoked Responses, VP-COR: --
[6]; 10 mg/kg i.v.
  Amplitude of Evoked Responses, HIP-AMY: --
  Amplitude of Evoked Responses, HIP-SEP: --
[6]; 25 mg/kg i.v.
  Amplitude of Evoked Responses, HIP-AMY: --
  Amplitude of Evoked Responses, HIP-SEP: --
rat, in vivo
  body weight reduction: not reduced
[8]
  compensatory adjustment against codeine: had not compensatory adjustment against codeine
In vivo; ip
  LD50: 150 mg/kg
In vivo; po
  LD50: 900 mg/kg
In vivo; sc
  LD50: 700 mg/kg
Hot plate test
  ED50: 10 mg/kg
Mouse jumping test
  jumping symptom: did not cause any jumping symptom
AgNO3 arthritis test
  ED50: 45 mg/kg
Electric stimuli test; po
  ED50: 220 mg/kg
Electric stimuli test; sc
  ED50: 50 mg/kg
[2]; po
  ED50: 5 mg/kg
[2]; sc
  ED50: 1.5 mg/kg
[3]; po
  ED50: 400 mg/kg
[3]; sc
  ED50: 70 mg/kg
[5]
  Influence of levallorphan on analgesic activity: did not influence the analgesic activity
